Experimental data reported in PubChem BioAssay AID720700 (The Scripps Research Institute Molecular Screening Center, 2013).
The entries are a selection whose mix differs from that of the whole data set. Calls of active or inactive are those of the source. Rule as the data show it: active = inhibition above about 9.5%; inactive = the rest.

Sequences of proteins named here, by UniProt entry; tags and fusion partners are left off. A change or cut given only in a name is not applied to a line headed by its entry.
UniProt P19174: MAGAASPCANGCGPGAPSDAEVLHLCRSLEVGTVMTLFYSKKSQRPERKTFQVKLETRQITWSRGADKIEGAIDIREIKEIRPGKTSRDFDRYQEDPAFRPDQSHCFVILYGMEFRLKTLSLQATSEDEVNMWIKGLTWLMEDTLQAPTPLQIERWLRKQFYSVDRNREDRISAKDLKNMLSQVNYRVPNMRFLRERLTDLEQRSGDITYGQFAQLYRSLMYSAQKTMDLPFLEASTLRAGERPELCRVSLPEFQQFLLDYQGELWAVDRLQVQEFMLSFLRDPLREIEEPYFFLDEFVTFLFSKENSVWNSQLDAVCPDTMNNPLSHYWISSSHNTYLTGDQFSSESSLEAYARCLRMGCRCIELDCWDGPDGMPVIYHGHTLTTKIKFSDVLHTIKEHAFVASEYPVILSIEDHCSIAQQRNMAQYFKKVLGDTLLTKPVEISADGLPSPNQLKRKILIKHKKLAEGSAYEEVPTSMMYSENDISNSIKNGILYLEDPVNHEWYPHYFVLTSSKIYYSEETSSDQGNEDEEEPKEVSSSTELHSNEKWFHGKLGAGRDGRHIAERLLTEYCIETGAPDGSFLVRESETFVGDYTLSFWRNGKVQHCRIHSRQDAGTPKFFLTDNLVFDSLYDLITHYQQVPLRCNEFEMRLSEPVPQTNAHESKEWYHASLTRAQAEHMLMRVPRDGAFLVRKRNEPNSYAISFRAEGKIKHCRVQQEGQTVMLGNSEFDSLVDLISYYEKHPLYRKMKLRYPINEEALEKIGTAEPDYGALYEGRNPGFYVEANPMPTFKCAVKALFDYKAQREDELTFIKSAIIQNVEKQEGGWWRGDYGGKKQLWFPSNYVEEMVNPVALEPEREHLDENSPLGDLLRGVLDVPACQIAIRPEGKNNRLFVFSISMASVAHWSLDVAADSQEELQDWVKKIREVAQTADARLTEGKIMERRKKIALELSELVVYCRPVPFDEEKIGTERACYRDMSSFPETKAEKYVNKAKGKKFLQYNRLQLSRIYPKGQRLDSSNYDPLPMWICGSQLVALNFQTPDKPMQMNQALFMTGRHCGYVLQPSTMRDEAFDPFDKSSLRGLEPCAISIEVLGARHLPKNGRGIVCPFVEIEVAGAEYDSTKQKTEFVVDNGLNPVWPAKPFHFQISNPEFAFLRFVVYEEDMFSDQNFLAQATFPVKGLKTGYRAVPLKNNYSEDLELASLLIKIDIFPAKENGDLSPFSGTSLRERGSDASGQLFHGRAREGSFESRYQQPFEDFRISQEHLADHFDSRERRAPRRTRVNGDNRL

target: 1-phosphatidylinositol 4,5-bisphosphate phosphodiesterase gamma-1 (Homo sapiens) (UniProt P19174); experiment: blockers of human PLCG1 activity – biochemical, fluorescence, purified enzyme, primary screen (AID 720700); details: purified PLC-gamma1, fluorogenic substrate, at 12.2 µM, hits give high values

**Q.** For `CCOP1(=S)c2c(C)nn(CCC#N)c2N=C(c2ccccc2F)N1C` (stereo not given), which inhibition is on record?
**A.** inactive: -0.87%

**Q.** How did the inhibition turn out when `CCOP1(=S)c2c(C)nn(CCC#N)c2N=C(c2ccc(F)cc2)N1C` (stereo not given) was run?
**A.** inactive: -2.04%

**Q.** For `CN(C(=O)Cc1ccccc1)[C@@H]1CC[C@]2(CCCO2)C[C@H]1N1CCCC1`, which inhibition is on record?
**A.** inactive: -0.64%

**Q.** How did the inhibition turn out when `N#CCCN(C(=O)COC(=O)C(O)(c1ccccc1)c1ccccc1)c1ccc(F)cc1` was run?
**A.** inactive: 0.43%

**Q.** `CN(C(=O)Cc1ccc(Cl)c(Cl)c1)[C@H]1CC[C@@]2(CCCO2)C[C@@H]1N1CCCC1` was tested. Which inhibition did it give?
**A.** inactive: 0.88%

**Q.** For `CN(C)C(=O)c1cc([N+](=O)[O-])cc2c1-c1c(cc([N+](=O)[O-])cc1[N+](=O)[O-])C2=O`, which inhibition is on record?
**A.** inactive: 3.83%

**Q.** Which inhibition does the source give for `O=[N+]([O-])c1ccc2c(c1)nnn2O` here?
**A.** inactive: -0.28%

**Q.** With `NC(=O)Nc1ccc([As](=O)(O)O)cc1` as the compound, how does the inhibition read?
**A.** inactive: 1.61%

**Q.** Which inhibition does the source give for `O=[As](O)(c1cccc(O)c1)c1cccc(O)c1` here?
**A.** inactive: 1.65%

**Q.** How did the inhibition turn out when `Cc1cccc(OCC(=O)OC2CN3CCC2CC3)c1` (stereo not given) was run?
**A.** inactive: 2.83%

**Q.** With `O=C(OC1CN2CCC1CC2)c1ccc(Cl)cc1` (stereo not given) as the compound, how does the inhibition read?
**A.** inactive: 3.6%

**Q.** `CS(=O)(=O)c1ccc(Cl)c(NC(=O)COC(=O)C(O)(c2ccccc2)c2ccccc2)c1` was tested. Which inhibition did it give?
**A.** inactive: 4.66%

**Q.** How did the inhibition turn out when `COc1cc(C(=O)NCC2(N3CCOCC3)CCCCC2)cc(Cl)c1OC(C)C` was run?
**A.** inactive: 2.68%

**Q.** Which inhibition does the source give for `O=[As](O)(O)c1cccnc1` here?
**A.** inactive: 0.66%

**Q.** For `CCOP(=O)(Nc1cccc2ccccc12)OCC`, which inhibition is on record?
**A.** inactive: -3.61%

**Q.** With `COc1cc(C2NCCC3(OCCO3)C2(C)C)cc(OC)c1OC` (stereo not given) as the compound, how does the inhibition read?
**A.** inactive: 2.51%

**Q.** With `Nc1cccc2c([As](=O)(O)O)cccc12` as the compound, how does the inhibition read?
**A.** inactive: -151%

**Q.** With `Cc1ccc(NCCc2c([N+](=O)[O-])cc([N+](=O)[O-])cc2[N+](=O)[O-])cc1` as the compound, how does the inhibition read?
**A.** inactive: 1.97%

**Q.** Which inhibition does the source give for `CCCOP(=S)(Nc1nc(N)cc(=O)[nH]1)OCCC` here?
**A.** inactive: 6.98%

**Q.** `CC(C)(C)C(=O)NC(Sc1ncccn1)C(Cl)(Cl)Cl` (stereo not given) was tested. Which inhibition did it give?
**A.** inactive: 2%

**Q.** With `Clc1n[nH]nc1-c1nn[nH][15n]1` as the compound, how does the inhibition read?
**A.** inactive: 5.53%

**Q.** With `O=P1(N(CCCl)CCCl)NCCC(C(F)(F)F)O1` (stereo not given) as the compound, how does the inhibition read?
**A.** inactive: 3.58%

**Q.** How did the inhibition turn out when `CCOP(=O)(NC(=NC(C)c1ccccc1)NC(C)c1ccccc1)OCC` (stereo not given) was run?
**A.** inactive: -1.77%

**Q.** Which inhibition does the source give for `CCC1=CC2Cc3nc4ccc(Cl)cc4c(N)c3C(C1)C2` (stereo not given) here?
**A.** inactive: -4.45%

**Q.** Which inhibition does the source give for `O=P1(Nc2ccccn2)COc2ccccc2OC1` here?
**A.** inactive: 0.96%

**Q.** For `CN(CCCl)Cc1cc(Cl)c(NC2=NCCN2)c(Cl)c1`, which inhibition is on record?
**A.** inactive: -0.33%

**Q.** `CCOP(=O)(Nc1ccc(C)cn1)OCC` was tested. Which inhibition did it give?
**A.** inactive: -1.08%

**Q.** For `CN(C(=O)Cc1ccc(Cl)c(Cl)c1)C1CCCC[C@@H]1N1CCCC1` (stereo not given in full), which inhibition is on record?
**A.** inactive: 3.24%

**Q.** `CN(C(=O)Cc1ccc(Cl)c(Cl)c1)[C@@H]1CCCC[C@H]1N1CCCC1` was tested. Which inhibition did it give?
**A.** inactive: 0.09%

**Q.** With `CC(C)/C=N\N=C(\N)N[N+](=O)[O-]` as the compound, how does the inhibition read?
**A.** inactive: 0.44%

**Q.** How did the inhibition turn out when `CC1(CBr)Cn2c(nc3ccccc3c2=O)S1` (stereo not given) was run?
**A.** inactive: -0.72%

**Q.** How did the inhibition turn out when `COc1ccccc1CNC(=O)COC(=O)C(O)(c1ccccc1)c1ccccc1` was run?
**A.** inactive: 3.19%

**Q.** `CN(C)C1(CNC(=O)c2ccc(S(C)(=O)=O)cc2)CCCCC1` was tested. Which inhibition did it give?
**A.** inactive: 0.28%

**Q.** Which inhibition does the source give for `CCCC1OP(=O)(Nc2ccccc2)OCC1CC` (stereo not given) here?
**A.** inactive: 3.58%

**Q.** Which inhibition does the source give for `O=C(/C=C/c1ccccc1)OC1CN2CCC1CC2` (stereo not given) here?
**A.** inactive: 2%

**Q.** How did the inhibition turn out when `Cc1ccc(C(=O)OC2CN3CCC2CC3)cc1` (stereo not given) was run?
**A.** inactive: -0.97%

**Q.** For `CC1CCC(C(C)C)C(OP(=O)(Nc2ccccn2)c2ccccc2)C1` (stereo not given), which inhibition is on record?
**A.** inactive: 2.32%

**Q.** With `Cc1nn(-c2ccccc2)c2c1P(=O)(N1CCOCC1)N(C)C(c1ccccc1)=N2` (stereo not given) as the compound, how does the inhibition read?
**A.** inactive: 0.43%

**Q.** How did the inhibition turn out when `Nc1cccc([As](=O)(O)c2ccccc2)c1` was run?
**A.** inactive: 5.14%

**Q.** `NS(=O)(=O)c1cccc(NC(=O)COC(=O)C(O)(c2ccccc2)c2ccccc2)c1` was tested. Which inhibition did it give?
**A.** inactive: 3.56%

**Q.** With `O=P1(Nc2ccc(Br)cn2)COc2ccccc2OC1` as the compound, how does the inhibition read?
**A.** inactive: 2.99%

**Q.** Which inhibition does the source give for `O=[As](O)(c1cccs1)c1cccs1` here?
**A.** inactive: -0.49%

**Q.** Which inhibition does the source give for `Cc1ccc(OCC(=O)OC2CN3CCC2CC3)cc1` (stereo not given) here?
**A.** inactive: 1.47%

**Q.** Which inhibition does the source give for `Cc1ccc(S(=O)(=O)N(CCCN)CCCc2c(C)nc(N)[nH]c2=O)cc1` here?
**A.** inactive: 3.46%

**Q.** For `O=P1(Nc2ncccn2)COc2ccccc2OC1`, which inhibition is on record?
**A.** inactive: -0.69%
